Assay results: patent US20080050452A1, “METAL-CONTAINING FORMULATIONS AND METHODS OF USE” (priority 2006, published 2008)

Assay: Compatibility of nanocrystalline silver with excipients
Type: physicochemical
Details: 10% aqueous solution of excipient mixed with nanocrystalline silver in glass vial, 40° C. overnight

Hexylene glycol
Reaction with nanocrystalline silver: Grey - no discoloration
